Values quoted from earlier work as cited in US7445791B2, “Synergistic insecticidal composition containing Chloronicotynyle and Organosphosphorus compounds” (priority 2004, dated 2008).

Tested on: crop plants
Details: cited from earlier work

For `CCN(CC)C(=O)C(Cl)=C(C)OP(=O)(OC)OC` [Phosphamidon, 2-chloro-2-diethylcarbamoyl-1-methylvinyldimethylphosphate], the “phytotoxicity to crop plants (in words)” value is listed as “non-phytotoxic”.
